Test results: patent US9028858B2 (Coloplast A/S, priority 2003, dated 2015)
Like-named read-outs stand apart in the source and are kept apart here.

Columns and labels:
[1] = Various stabilizers: degradation of H2O2 at pH 4, 5.5 and 7; conditions: with stabilizer, 25 mM citric acid, approx. 1% H2O2

Calculated degraded amount of H2O2 (%) after 2 years storage at 23° C. (0 mM citrate, pH 4, DETAPMP 500 mg/L, sodium salt of DETAPMP 1000 mg/L, sodium salt of EDATMP 500 mg/L): 15.4%
Calculated degraded amount of H2O2 (%) after 2 years storage at 23° C. (0 mM citrate, pH 4, sodium salt of EDATMP 1000 mg/L): 15.4%
Calculated degraded amount of H2O2 (%) after 2 years storage at 23° C. (0 mM citrate, pH 5.5, DETAPMP 500 mg/L, sodium salt of DETAPMP 1000 mg/L, sodium salt of EDATMP 500 mg/L): 18.2%
Calculated degraded amount of H2O2 (%) after 2 years storage at 23° C. (0 mM citrate, pH 5.5, sodium salt of EDATMP 1000 mg/L): 21.0%
Calculated degraded amount of H2O2 (%) after 2 years storage at 23° C. (0 mM citrate, pH 7, DETAPMP 500 mg/L, sodium salt of DETAPMP 1000 mg/L, sodium salt of EDATMP 500 mg/L): 35.0%
Calculated degraded amount of H2O2 (%) after 2 years storage at 23° C. (0 mM citrate, pH 7, sodium salt of EDATMP 1000 mg/L): 25.2%
Calculated degraded amount of H2O2 (%) after 2 years storage at 23° C. (10 mM citrate, pH 4, DETAPMP 500 mg/L, sodium salt of DETAPMP 1000 mg/L, sodium salt of EDATMP 500 mg/L): 19.6%
Calculated degraded amount of H2O2 (%) after 2 years storage at 23° C. (10 mM citrate, pH 4, sodium salt of EDATMP 1000 mg/L): 37.8%
Calculated degraded amount of H2O2 (%) after 2 years storage at 23° C. (10 mM citrate, pH 5.5, DETAPMP 500 mg/L, sodium salt of DETAPMP 1000 mg/L, sodium salt of EDATMP 500 mg/L): 53.2%
Calculated degraded amount of H2O2 (%) after 2 years storage at 23° C. (10 mM citrate, pH 5.5, sodium salt of EDATMP 1000 mg/L): 30.8%
Calculated degraded amount of H2O2 (%) after 2 years storage at 23° C. (10 mM citrate, pH 7, DETAPMP 500 mg/L, sodium salt of DETAPMP 1000 mg/L, sodium salt of EDATMP 500 mg/L): 86.8%
Calculated degraded amount of H2O2 (%) after 2 years storage at 23° C. (10 mM citrate, pH 7, sodium salt of EDATMP 1000 mg/L): 43.4%
Calculated degraded amount of H2O2 (%) after 2 years storage at 23° C. (25 mM citrate, pH 4, DETAPMP 500 mg/L, sodium salt of DETAPMP 1000 mg/L, sodium salt of EDATMP 500 mg/L): 50.4%
Calculated degraded amount of H2O2 (%) after 2 years storage at 23° C. (25 mM citrate, pH 4, sodium salt of EDATMP 1000 mg/L): 50.4%
Calculated degraded amount of H2O2 (%) after 2 years storage at 23° C. (25 mM citrate, pH 5.5, DETAPMP 500 mg/L, sodium salt of DETAPMP 1000 mg/L, sodium salt of EDATMP 500 mg/L): 103.6%
Calculated degraded amount of H2O2 (%) after 2 years storage at 23° C. (25 mM citrate, pH 5.5, sodium salt of EDATMP 1000 mg/L): 39.2%
Calculated degraded amount of H2O2 (%) after 2 years storage at 23° C. (25 mM citrate, pH 7, DETAPMP 500 mg/L, sodium salt of DETAPMP 1000 mg/L, sodium salt of EDATMP 500 mg/L): 137.1%
Calculated degraded amount of H2O2 (%) after 2 years storage at 23° C. (25 mM citrate, pH 7, sodium salt of EDATMP 1000 mg/L): 158.1%
calculated amount of degraded H2O2 after 2 years of storage at 23° C. ([1]; pH 4): 18.3%
calculated amount of degraded H2O2 after 2 years of storage at 23° C. ([1]; pH 5.5): 14.5%
calculated amount of degraded H2O2 after 2 years of storage at 23° C. ([1]; pH 7): 25.8%
Substance: Sodium salt of Ethylenediaminetetra(methylenephosphonic)acid [Sodium salt of EDATMP]
